In experiment [1] the target is Vasopressin V1a receptor (Rattus norvegicus) (UniProt P30560). The experiment can be described thus: Inhibition dose for AVP (30 milliunits/kg, iv) induced vasoconstriction when orally administarted. It is filed as functional, organism-based.
The target is the same in experiment [2]. As to conditions: Artery; 20 uM.
The target is the same in experiment [3]. As to the kind of experiment: Inhibition expressed as percent change in diastolic blood pressure increased by AVP (30 milliunits / kg, iv) before and after oral administration at 23 uM/kg. It counts as functional, organism-based. To be noted: Artery.
For another experiment, the target named is Vasopressin V1a receptor (Rattus norvegicus, UniProt P30560). As to the kind of experiment: Ability to displace [3H]- Arginine Vasopressin (AVP) from its specific binding sites in rat liver (V1 receptor).
In experiment [4] the target is Vasopressin V1a receptor (Rattus norvegicus) (UniProt P30560). As to the kind of experiment: Inhibition expressed as percent change in diastolic blood pressure increased by AVP (30 milliunits / kg, iv) before and after oral administration at 21 uM/kg. It is filed as functional, organism-based. As to conditions: Artery.
For experiment [5] the target is unchanged. As to conditions: Artery; 22 uM.
The target is the same in experiment [6]. As to conditions: Artery; 19 uM.
Experiment [7] shares this target. As to conditions: Artery; 240 uM.

Sequences of proteins named here, by UniProt entry; tags and fusion partners are left off.
UniProt P30560, whole entry, looked up: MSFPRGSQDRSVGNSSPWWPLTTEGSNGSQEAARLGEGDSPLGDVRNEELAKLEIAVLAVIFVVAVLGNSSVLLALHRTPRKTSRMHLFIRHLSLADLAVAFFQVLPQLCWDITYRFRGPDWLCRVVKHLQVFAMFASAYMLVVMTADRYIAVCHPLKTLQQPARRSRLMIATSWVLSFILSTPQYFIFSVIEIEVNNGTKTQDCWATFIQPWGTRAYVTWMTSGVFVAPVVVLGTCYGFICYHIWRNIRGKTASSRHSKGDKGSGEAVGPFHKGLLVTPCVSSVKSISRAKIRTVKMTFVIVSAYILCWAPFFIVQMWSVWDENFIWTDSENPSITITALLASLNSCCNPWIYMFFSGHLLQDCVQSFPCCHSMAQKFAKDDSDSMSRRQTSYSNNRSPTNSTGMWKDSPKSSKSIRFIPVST

Molecules are shown by their SMILES. Active and inactive are the calls of the source. No cut-off for these calls is given here.

Turning to `CC(=O)NCCCCCCOc1ccc(C(=O)N2CCC(N3C(=O)CCc4ccccc43)CC2)cc1`, the ID50 in experiment [1] is 10 µmol/kg. The inhibition in experiment [2] stood at 72%.

Regarding `NCCCCOc1ccc(C(=O)N2CCC(N3C(=O)CCc4ccccc43)CC2)cc1`, the inhibition in experiment [3] worked out at 31%.

The compound `CC(=O)Oc1ccc(C(=O)N2CCC(N3C(=O)CCc4ccccc43)CC2)cc1` yielded an IC50 on Vasopressin V1a receptor of 490 nM.

In experiment [1], `COC(=O)NCCCOc1ccc(C(=O)N2CCC(N3C(=O)CCc4ccccc43)CC2)cc1` gave an ID50 of 8.6 µmol/kg. The same compound returned an inhibition in experiment [4] of 73%. Take `NCCCCCOc1ccc(C(=O)N2CCC(N3C(=O)CCc4ccccc43)CC2)cc1`: the inhibition result in experiment [5] is “inactive”. As to `CC(=O)NCCCCCCCCOc1ccc(C(=O)N2CCC(N3C(=O)CCc4ccccc43)CC2)cc1`, the inhibition result in experiment [6] is “inactive”. For the compound `O=C(c1ccc(Br)cc1)N1CCC(N2C(=O)CCc3ccccc32)CC1`, the inhibition result in experiment [7] was “inactive”.

For the origin of these results see ChEMBL document CHEMBL1126733, “Orally active, nonpeptide vasopressin V1 antagonists. A novel series of 1-(1-substituted 4-piperidyl)-3,4-dihdyro-2(1H)-quinolinone” (J Med Chem, 1993).
